Source: patent US20240050395A1 (priority 2020, published 2024)

Tests used:
[1] = test system: LOVO; test: Tumor cell inhibition, CellTiter-Glo; conditions: Colon cancer, cultured for 72 h
[2] = test system: HCC827; test: Tumor cell inhibition, CellTiter-Glo; conditions: Lung cancer, cultured for 72 h
[3] = test system: ZR-75-1; test: Tumor cell inhibition, CellTiter-Glo; conditions: Breast ductal carcinoma, cultured for 72 h
[4] = test system: HepG2; test: Tumor cell inhibition, CellTiter-Glo; conditions: Liver cancer, cultured for 72 h
[5] = test system: Daudi; test: Tumor cell inhibition, CellTiter-Glo; conditions: Leukemia, cultured for 72 h
[6] = test system: SNU-5; test: Tumor cell inhibition, CellTiter-Glo; conditions: Gastric cancer, cultured for 72 h
[7] = test system: Aβ release of stably-transformed APP (SW) HEK293 cells; test: Aβ release, ELISA of supernatant

Row | SMILES | IC50 [1] [µM] | IC50 [2] [µM] | IC50 [3] [µM] | IC50 [4] [µM] | IC50 [5] [µM] | IC50 [6] [µM] | Aβ contents in cell culture supernatants vs. d5PAO 50 nM treatment group ([7]; 25 nM and 75 nM) | extracellular Aβ contents ([7]; 25 nM, 50 nM and 75 nM, vs. control group)
1 | [2H]c1c([2H])c([2H])c([As]=O)c([2H])c1[2H] (centres unmarked) | 0.1 to 0.2 | 0.18 | 0.05 to 0.1 | 0.1 to 0.2 | 0.0593 | 0.1 to 0.2 | – | –
2 | [2H]c1ccc([As]=O)c([2H])c1 (centres unmarked) | – | – | – | – | – | – | significant differences | significantly increased
